# Antibody variant affinities, Ab-14 heavy chain, assay B

From the AlphaSeq antibody data of Li et al. 2023 (doi:10.1038/s41467-023-39022-2), copy in the FLAb collection.

Binding partner: SARS-CoV-2 spike HR2 peptide, sequence PDVDLGDISGINAS.

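Phage display of a naive human antibody library on the peptide gave the parent. These sequences belong to a second round, designed from the earlier measurements on random variants of the parent. Their group label is 14H_En_Gibbs (En: ensemble of fine-tuned language models; Gibbs: Gibbs sampling). The scFvs were displayed on barcoded MATa yeast, the peptide on MATalpha yeast. The frequency of each diploid, read from paired DNA barcodes, reflects how well the two displayed proteins bind. The ratio of observed to expected reads was calibrated, replicate by replicate, on BCL2-family standards whose Kd was known from biolayer interferometry. Mating was done six times.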

Parent: Ab-14, a human scFv built as VH, the linker GGGGSGGGGSGGGGS, VL. Only the CDRs of the heavy chain vary.
VH: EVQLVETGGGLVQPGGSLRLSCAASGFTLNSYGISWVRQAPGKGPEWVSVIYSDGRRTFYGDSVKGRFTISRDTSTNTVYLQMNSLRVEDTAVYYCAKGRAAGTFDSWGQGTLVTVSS
VL: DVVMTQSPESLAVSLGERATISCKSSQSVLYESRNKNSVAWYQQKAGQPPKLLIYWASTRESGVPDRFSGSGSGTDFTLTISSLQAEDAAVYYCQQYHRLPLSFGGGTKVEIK

Each variant is given by its three heavy chain CDRs, as the data file delimits them; those of the parent are GFTLNSYGIS, VIYSDGRRTFYGDSVK, GRAAGTFDS.
Numbers give log10(Kd / nM), so 0 is 1 nM and 3 is 1 µM. Smaller is tighter.
A pair that was not seen in that replicate is written "nd"; this usually means weak binding, but a binder can also be missed.
The authors averaged sequences with at least three values out of six and counted those with two or fewer as poor binders.

CDR-H1,CDR-H2,CDR-H3,"replicates, log10 nM",control signals
GDDLENVGIS,VIYADGMRKQYAQNVK,GHTGGTFFD,nd / nd / nd / nd / nd / nd,0 of 18
GMNLGEYGIS,VIYADGVRQAYVDKVK,GFNGVDGLI,nd / nd / nd / nd / nd / nd,1 of 18 (1.06)
GKHLDEYGIS,VIYADGQRVAYSDTVK,GIQGVNVDV,nd / nd / nd / nd / nd / nd,0 of 18
GFEIDEYGIS,VIYADGKRTSYNDTVK,GQLGNAFDL,nd / nd / nd / nd / nd / nd,0 of 18
GFLLDEYGIS,VIYADGQRTAYTDDVK,GYYGGIGTI,nd / nd / nd / nd / nd / nd,0 of 18
GFDISEYGIS,VIYADGKKTQFVNTVK,GELGGTLDV,nd / nd / nd / nd / nd / nd,0 of 18
GFNLGEYGIS,VIYADGVRTAYVDKVK,GFGQVDSLI,nd / nd / nd / nd / nd / nd,0 of 18
GFDIEDYGIS,VIYADGMRSSYSNSFK,GLMSGNIMV,nd / nd / nd / nd / nd / nd,0 of 18
GGDLNEYGIS,VIYADGVRKNYDDSVK,GQTGLVLYI,nd / nd / nd / nd / nd / nd,0 of 18
GFDLEEYGIS,VIYADGLRSFYADNFK,GWNSGTIAV,nd / nd / nd / nd / nd / nd,0 of 18
GKSLDEYGIS,VIYADGLRSVYANSVK,GQFDDTLDL,nd / nd / nd / nd / nd / 2.39,0 of 18
GFDLNEYGIS,VIYADGSRVEYENKFK,GDVAGTFDS,1.80 / 2.20 / nd / 1.52 / 1.84 / 2.83,1 of 18 (2.09)
GFHLDEFGIS,VIYADGSRSSYADDVK,GEGVNGFVI,nd / nd / nd / 3.96 / nd / nd,1 of 18 (2.19)
GQDLNEYGIS,VIYADGFRTAYADTVK,GTIGFMLDS,nd / nd / nd / nd / nd / nd,1 of 18 (1.42)
GFDLEDYGIS,VIYADGKRTAYAQKFK,GRIGGTFVD,1.38 / 1.39 / 0.28 / 0.52 / 0.18 / 0.61,0 of 18
GFDLEEYGIS,VIYADGLREAYTANVK,GGKSGDFFM,nd / nd / nd / nd / nd / nd,0 of 18
GFDINEYGIS,VIYADGKKTAFANTVK,GESAGNFDD,nd / nd / nd / nd / nd / nd,0 of 18
GFDLEEYGIS,VIYADGRRKQYTDAVK,GKFLVMMDM,nd / nd / nd / nd / nd / nd,0 of 18
GADINEYGIS,VIYADGIRSAYAQDVK,GEIGSQFDI,nd / nd / nd / nd / nd / nd,0 of 18
GFDLGEYGIS,VIYADGMRSAYTDKVK,GAGANIITH,nd / nd / nd / nd / nd / nd,0 of 18
GENLEEYGIS,VIYADGIREQYTDQVK,GEQGGYFNT,nd / nd / nd / nd / nd / nd,0 of 18
GFDLNEYGIS,VIYADGLRTQYASSFK,GDLAGYFMS,1.26 / 0.56 / 0.60 / 0.73 / 1.06 / 1.22,2 of 18 (2.90)
FFKLEDYGIS,VIYADGKRKAYVQNVK,GEIAGTFDV,nd / nd / nd / nd / 1.50 / nd,0 of 18
GFTLSEYGIS,VIYADGVRVEYTQSVK,GQLGGSFLV,nd / nd / nd / nd / nd / nd,0 of 18
GQSLDEYGIS,VIYADGQRKSYMDSVK,GNGTGQLFD,nd / nd / nd / nd / nd / nd,1 of 18 (1.80)
GFNLDEYGIS,VIYADGMRRAYVDEVK,GYHSDVQLM,nd / nd / nd / nd / nd / nd,0 of 18
GFDLNEYGIS,VIYADGTRTYYANSFK,GDYKVKNSI,nd / nd / nd / nd / nd / nd,0 of 18
GFSLEEFGIS,VIYADGSRRAYAQDVK,GGTAGGFVV,nd / nd / nd / nd / nd / nd,0 of 18
GFSLNEYGIS,VIYADGMRNFYADSVK,GLHKGFFDI,nd / nd / nd / nd / nd / nd,0 of 18
GKNLDEYGVS,VIYADGKRTAYTNNFK,GGNAGFFMS,nd / nd / nd / nd / nd / nd,0 of 18
GFSIDEYGIS,VIYADGIRASYAPKVK,GQYAGDFIE,nd / nd / nd / nd / nd / nd,0 of 18
GYDLNEYGIS,VIYADGRRVAYIDDVK,GHVSDHFAV,nd / nd / nd / nd / nd / nd,0 of 18
GESLEEYGIS,VIYADGRRTAYADNVK,GMSGNFGMF,nd / nd / nd / nd / nd / nd,0 of 18
GFDLQEYGIS,VIYADGLRTAYGNSVK,GQSNALITV,nd / nd / nd / nd / nd / nd,0 of 18
GFDLGEYGIS,VIYADGRRKGYSDAVK,GINSINKTV,nd / nd / nd / nd / nd / nd,0 of 18
GFELEEYGIS,VIYADGQRTFYADNVK,GDVDTDVHY,nd / nd / nd / nd / nd / nd,0 of 18
GFDINEYGIS,VIYADGMRTKYSESVK,GTVDESFNG,nd / nd / nd / nd / nd / nd,0 of 18
GKDINEYGVS,VIYADGKRNAYINSVK,GKNAGAFVD,0.74 / nd / nd / nd / nd / nd,0 of 18
GFDLGEYGIS,VIYADGRRFAYSQAVK,GLNEGMLDI,nd / 3.48 / nd / nd / nd / nd,0 of 18

Again, the first 6 entries without any signal:

CDR-H1,CDR-H2,CDR-H3,"replicates, log10 nM",control signals
GDDLENVGIS,VIYADGMRKQYAQNVK,GHTGGTFFD,nd / nd / nd / nd / nd / nd,0 of 18
GMNLGEYGIS,VIYADGVRQAYVDKVK,GFNGVDGLI,nd / nd / nd / nd / nd / nd,1 of 18 (1.06)
GKHLDEYGIS,VIYADGQRVAYSDTVK,GIQGVNVDV,nd / nd / nd / nd / nd / nd,0 of 18
GFEIDEYGIS,VIYADGKRTSYNDTVK,GQLGNAFDL,nd / nd / nd / nd / nd / nd,0 of 18
GFLLDEYGIS,VIYADGQRTAYTDDVK,GYYGGIGTI,nd / nd / nd / nd / nd / nd,0 of 18
GFDISEYGIS,VIYADGKKTQFVNTVK,GELGGTLDV,nd / nd / nd / nd / nd / nd,0 of 18

Values of this round are not directly comparable with the first-round values of the same sequences.
Empty control strains, which show no peptide, gave a signal in 1% of pairings with all heavy chain designs; the median was 2.08 and 95% of these signals were weaker than 0.84. No background was subtracted. Also given: how often the same scFv was detected with the empty control strains, with their mean in brackets.